{"source": "paper PMC8713164", "about": "“Development of a 1,2,4-Triazole-Based Lead Tankyrase Inhibitor: Part II” (Journal of Medicinal Chemistry, 2021)", "origin": "cited, not measured here", "key": {"[1]": {"target": "T1, TNKS2 (Homo sapiens, UniProt Q9H2K2)", "T1 construct": "TNKS2 (residues 873–1162); made in house", "T1 sequence (Q9H2K2 873-1162)": "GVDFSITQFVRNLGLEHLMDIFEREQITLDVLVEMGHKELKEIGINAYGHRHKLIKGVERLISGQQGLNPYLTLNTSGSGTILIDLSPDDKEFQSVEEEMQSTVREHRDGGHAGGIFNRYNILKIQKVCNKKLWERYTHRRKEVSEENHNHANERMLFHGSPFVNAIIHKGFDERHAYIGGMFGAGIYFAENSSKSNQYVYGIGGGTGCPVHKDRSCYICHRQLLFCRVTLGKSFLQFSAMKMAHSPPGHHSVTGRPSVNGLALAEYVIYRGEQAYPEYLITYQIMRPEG", "details": "cited from earlier work"}, "[2]": {"target": "T2, TNKS1 (Homo sapiens, UniProt O95271)", "T2 sequence (O95271 1030-1317)": "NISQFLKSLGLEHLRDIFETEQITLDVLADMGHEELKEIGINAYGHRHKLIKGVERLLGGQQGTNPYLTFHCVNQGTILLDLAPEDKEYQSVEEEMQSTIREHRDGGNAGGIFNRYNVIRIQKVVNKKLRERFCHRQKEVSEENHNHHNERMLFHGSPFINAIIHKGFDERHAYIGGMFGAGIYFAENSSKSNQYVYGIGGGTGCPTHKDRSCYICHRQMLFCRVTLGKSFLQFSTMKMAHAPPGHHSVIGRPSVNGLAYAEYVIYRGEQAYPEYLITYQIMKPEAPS", "details": "cited from earlier work"}}, "data": [{"smiles": "CCOc1ccc(-c2nnc([C@H]3C[C@H](NC(=O)c4ccccn4)C3)n2-c2ccccc2F)nc1", "note": "[Compound 1]", "values": [{"measurement": "IC50", "setting": "[1]", "result": 14, "unit": "nM"}, {"measurement": "TNKS2 pIC50 ± SEM", "setting": "[1]", "result": "14 (7.85 ± 0.04)"}, {"measurement": "TNKS1 pIC50 ± SEM", "setting": "[2]", "result": "6.90 ± 0.05"}, {"measurement": "IC50", "setting": "[2]; read-out: TNKS1 IC50", "result": 127, "unit": "nM"}]}]}
